According to PubChem BioAssay (NCI):
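How tested: cells in 96-well plates exposed to compound for 48 hours at five concentrations. GI50: concentration for 50% inhibition of growth. TGI is the concentration that stops growth completely.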

Experiments:
Experiment in all cases: NCI anticancer screen, dose series, 48 h; in the data active = GI50 below about 0.43 µM; inactive = the rest
[1] = tested on: 786-0 renal
[2] = tested on: A549 NSCLC
[3] = tested on: ACHN renal
[4] = tested on: BT-549 breast
[5] = tested on: CAKI-1 renal
[6] = tested on: CCRF-CEM leukemia
[7] = tested on: COLO 205 colon
[8] = tested on: DU-145 prostate
[9] = tested on: EKVX NSCLC
[10] = tested on: HCC-2998 colon
[11] = tested on: HCT-116 colon
[12] = tested on: HCT-15 colon
[13] = tested on: HL-60(TB) leukemia
[14] = tested on: HOP-62 NSCLC
[15] = tested on: HOP-92 NSCLC
[16] = tested on: HT29 colon
[17] = tested on: IGROV1 ovarian
[18] = tested on: K-562 leukemia
[19] = tested on: KM12 colon
[20] = tested on: LOX IMVI melanoma
[21] = tested on: M14 melanoma
[22] = tested on: MALME-3M melanoma
[23] = tested on: MCF7 breast
[24] = tested on: MDA-MB-231 breast
[25] = tested on: MDA-MB-435
[26] = tested on: MOLT-4 leukemia
[27] = tested on: NCI-H226 lung
[28] = tested on: NCI-H23 lung
[29] = tested on: NCI-H460 lung
[30] = tested on: NCI-H522 lung
[31] = tested on: NCI/ADR-RES ovarian
[32] = tested on: OVCAR-4 ovarian
[33] = tested on: OVCAR-5 ovarian
[34] = tested on: OVCAR-8 ovarian
[35] = tested on: RPMI-8226 leukemia
[36] = tested on: SF-268 CNS
[37] = tested on: SF-295 CNS
[38] = tested on: SF-539 CNS
[39] = tested on: SK-MEL-2 melanoma
[40] = tested on: SK-MEL-28 melanoma
[41] = tested on: SK-MEL-5 melanoma
[42] = tested on: SN12C renal
[43] = tested on: SNB-19 CNS
[44] = tested on: SNB-75 CNS
[45] = tested on: SR leukemia
[46] = tested on: SW-620 colon
[47] = tested on: TK-10 renal
[48] = tested on: U251 CNS
[49] = tested on: UACC-257 melanoma

Cc1c(CN=[N+]=[N-])c(C)c(CN=[N+]=[N-])c(C)c1CN=[N+]=[N-]
56.5 µM: TGI [28]
inactive: GI50 [1] 83.2 µM | GI50 [2] 38 µM | GI50 [3] > 100 µM | GI50 [4] 35.9 µM | GI50 [5] 40.9 µM | GI50 [6] 29.9 µM | GI50 [7] 41 µM | GI50 [8] 32.6 µM | GI50 [9] 93.4 µM | GI50 [10] 33.2 µM | GI50 [11] 34.8 µM | GI50 [12] 37.8 µM | GI50 [13] 28.3 µM | GI50 [14] 55.6 µM | GI50 [15] 29.4 µM | GI50 [16] 28.5 µM | GI50 [17] 45.6 µM | GI50 [18] 24.8 µM | GI50 [19] 39.5 µM | GI50 [20] 37.7 µM | GI50 [21] 81.3 µM | GI50 [22] 57.3 µM | GI50 [23] 43 µM | GI50 [24] 41.2 µM | GI50 [25] 52.4 µM | GI50 [26] 21.5 µM | GI50 [27] 36.9 µM | GI50 [28] 18.7 µM | GI50 [29] 50.6 µM | GI50 [30] 24.2 µM | GI50 [31] 56.7 µM | GI50 [32] 44.1 µM | GI50 [33] > 100 µM | GI50 [34] 40 µM | GI50 [35] 54 µM | GI50 [36] 10.6 µM | GI50 [37] 56.9 µM | GI50 [38] 66.2 µM | GI50 [39] 32.9 µM | GI50 [40] > 100 µM | GI50 [41] 18.7 µM | GI50 [42] 72.6 µM | GI50 [43] > 100 µM | GI50 [44] 17.8 µM | GI50 [45] 46.1 µM | GI50 [46] 33.8 µM | GI50 [47] > 100 µM | GI50 [48] 57.6 µM | GI50 [49] 83.5 µM
> 100 µM: TGI [1] | TGI [2] | TGI [3] | TGI [4] | TGI [5] | TGI [6] | TGI [7] | TGI [8] | TGI [9] | TGI [11] | TGI [12] | TGI [14] | TGI [15] | TGI [16] | TGI [17] | TGI [18] | TGI [19] | TGI [20] | TGI [21] | TGI [22] | TGI [23] | TGI [24] | TGI [25] | TGI [27] | TGI [29] | TGI [30] | TGI [31] | TGI [32] | TGI [33] | TGI [34] | TGI [35] | TGI [37] | TGI [38] | TGI [39] | TGI [40] | TGI [42] | TGI [43] | TGI [44] | TGI [45] | TGI [46] | TGI [47] | TGI [48] | TGI [49]
75.3 µM: TGI [36]
78 µM: TGI [10]
40.2 µM: TGI [41]
56.4 µM: TGI [26]
88.2 µM: TGI [13]
